Assay [1] relates to Aurora A (AurA). Description: Time-resolved FRET lifetime assay, AurA biosensor labeled at L225C/S284C, 384-well plates. To be noted: 5 μM inhibitor, samples lacking TPX2 (phosphorylated and unphosphorylated AurA).
The target of assay [2] is T1, Aurora A (AurA) (Homo sapiens, UniProt O14965, C290S/C393S/L225C/S284C).
T1 sequence (O14965 122-403 L225C/S284C/C290S/C393S): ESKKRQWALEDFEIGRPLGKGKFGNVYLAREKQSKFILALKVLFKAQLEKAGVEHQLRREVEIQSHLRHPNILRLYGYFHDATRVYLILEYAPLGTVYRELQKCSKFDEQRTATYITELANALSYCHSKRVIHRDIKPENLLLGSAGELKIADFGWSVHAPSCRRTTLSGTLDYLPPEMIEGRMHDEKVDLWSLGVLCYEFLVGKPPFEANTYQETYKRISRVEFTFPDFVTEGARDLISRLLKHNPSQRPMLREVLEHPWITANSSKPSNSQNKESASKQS
T1 sequence (Q9ULW0 1-43 partner): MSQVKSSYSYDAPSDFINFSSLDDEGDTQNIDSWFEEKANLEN
The assay is described as above.

The test system of assay [3] is Aurora A (AurA). Description: Steady-state FRET ligand titration with FRET-labeled AurA. The note with it: apo AurA, Alexa 488/Alexa 568. The class given is binding, human. The method, then:
The peptide TPX2 residues 1-43 (Selleck Chemicals, Houston, Tex.) was dissolved at 0.1 mM to 1.2 mM in 100 mM HEPES pH 7.5 and stored at −20° C. ADP stocks (Sigma-Aldrich Corporation, St. Louis, Mo.) were dissolved at 100 mM in 1 M HEPES pH 7.5 and stored at −20° C. Small molecule inhibitors including axitinib and MLN8054 (Selleck Chemicals, Houston, Tex.) were dissolved at 1 mM to 100 mM in DMSO and stored at −20° C.
Steady-state FRET ligand titration experiments (with ADP, TPX2, and inhibitors) were performed at room temperature at 20 nM to 50 nM AurA in ADP Quest Assay buffer +1% DMSO in a Fluoromax-4 spectrofluorometer (Horiba, Ltd., Japan). Samples were excited at 490 nm and fluorescence emission was recorded 510 nm to 750 nm.
Ligand binding data were visualized and analyzed using Microsoft Excel and Origin software. FRET was calculated using the equation E=1−(DA/D), where E is the efficiency of FRET, DA is the fluorescence of the AurA+D+A sample, and D is the fluorescence of the corresponding AurA+D control sample.

The compound `O=C(O)c1ccc(Nc2ncc3c(n2)-c2ccc(Cl)cc2C(c2c(F)cccc2F)=NC3)cc1` [MLN-8054] registered an inter-probe distance with Aurora A (AurA) [1] of roughly 30 Å. Besides, the “inter-probe distance relative to DFG-In compounds” value on Aurora A (AurA) [2] is listed as “slightly shorter distances”. The “change in FRET on addition of ligand” value in the assay on Aurora A (AurA) [3] was “increase in FRET”.
